# Only some compounds are listed: those with a hit (about 1% of all), similar ones and a draw of the others.
# gsp agonist = activates gsp, the McCune-Albright syndrome mutation; actives 0.13% (n = 340,000); gsp mutant cells, cAMP HTRF, 30 min; Potency, µM (top dose mostly 76.9 µM), for inactives: at the highest dose activation (cAMP increase), actives largely listed as activators; active = well fitted activation curve with a large enough effect; inconclusive = small, poorly fitted or top-dose-only effect, or another doubt; inactive = no such curve, though single readings can be large or run the other way; cell line not stated here;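 also: phosphodiesterase inhibitor Ro 20-1724 added with compounds to block cAMP breakdown; potency is read from the fitted curve at half-maximal effect; nearly all actives have a fitted effect of over 60% in size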
#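 Cells in DMEM/10% FBS with G418 were pretreated with compounds in DMSO plus […] (300 uM stock) for 30 min at 37C. cAMP was measured by HTRF (cAMP-d2 plus anti-cAMP antibody-K) after 30 min at room temperature.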
# KinaseGlo FLuc = counter-screen: inhibitors of Kinase-Glo firefly luciferase; actives 0.28% (n = 200,000); Kinase-Glo luciferase, ATP luminescence, 8 min; Potency, µM (doses to about 38.3 µM), without a hit: at the top dose activity change, negative = inhibition, most hits filed as inhibitors; Q27757; AID 1379; also: potency is read from the fitted curve at half-maximal effect; % is scaled to controls: 0 for no effect and ±100 for the full control effect; nearly all actives have a fitted effect of over 60% in size
#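 Recombinant Kinase-Glo luciferase, 10 uM ATP (linear range), luciferin; imidazole pH 7.2 / KCl / MgCl2 / Tween / BSA buffer; 8 min RT; luminescence.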
# RXFP1 antag = antagonists of human relaxin receptor RXFP1; Q9HBX9; HEK293-RXFP1, relaxin-stimulated cAMP HTRF, 30 min; hits give low values; activity change, negative = inhibition, % at 57.5 µM; actives 0.59% (n = 350,000);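 active = activity change of -60% or lower, but not beyond a set lower limit; inconclusive = change between -60% and -40%, or beyond the set limit; inactive = change above -40%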; also: % is scaled to controls: 0 for no effect and ±100 for the full control effect
# RXFP1 ag = agonists of human relaxin receptor RXFP1; AID 2676; Potency, µM (titrated, usually from 57.5 µM), inactives show at the highest dose activation, actives largely listed as activators; HEK293T-RXFP1 cAMP TR-FRET, 30 min; response scale: percent of porcine relaxin response, buffer zero; actives 0.3% (n = 370,000); Q9HBX9; also: potency is read from the fitted curve at half-maximal effect; % is scaled to controls: 0 for no effect and ±100 for the full control effect; nearly all actives have a fitted effect of over 60% in size
#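 HEK293 cells stably expressing RXFP1, treated 30 min at 37C with compounds plus PDE4 inhibitor Ro 20174; cAMP measured by HTRF TR-FRET. Normalized to buffer and 29 nM porcine relaxin; EC50 by Hill fit.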
# miR-21 reporter = raises the signal of a miR-21 reporter; 340,000 tested, under 10 active; HeLa miR-21 FLuc reporter, luciferase, 48 h; Potency, µM (highest dose often 38.3 µM), without a hit: top-dose reporter change, positive = more light; active = well fitted rising curve with a large enough effect; inconclusive = small, poorly fitted or top-dose-only effect; inactive = no such curve, though single readings can be large or run the other way;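 also: % of control where 0% means no effect; miR-21 action dims this reporter so a rising signal means less miR-21 action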
#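 Using DMEM plus 10% FBS, HeLa miR-21-FLuc cells are incubated with test compounds (final up to about 40uM) for 48 hours; firefly luciferase signal is then imaged following reagent-mediated lysis.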
# gsp antag = antagonizes gsp, the McCune-Albright syndrome mutation; gsp-mutant cells, cAMP HTRF, 30 min; Potency, µM (doses to about 76.9 µM), inactives show at the top dose activity change, negative = inhibition, usual class: inhibitors; actives 0.4% (n = 340,000); calls by dose curve; cell line not stated here;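 also: intracellular cAMP measured with PDE inhibitor Ro 20-1724 present during compound exposure; potency is read from the fitted curve at half-maximal effect; % is scaled to controls: 0 for no effect and ±100 for the full control effect; nearly all actives have a fitted effect of over 65% in size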
#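 HTRF cAMP read-out (cAMP-d2 plus anti-cAMP antibody-K in lysis buffer, 30 min RT). Before lysis, cells are exposed to compounds with […] for 30 min at 37C in DPBS containing Ca/Mg, BSA and Tween 20.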
# * hit, by the source's call; ? = inconclusive; / = not tested or not shown; [ ] = another dose, or the depositor's remark. Unless noted, calls follow the shape of the dose curve; as a rule, active = well fitted curve in the direction sought with a large enough effect; inconclusive = small, poorly fitted or top-dose-only effect, or another doubt; inactive = no such curve, though single readings can be large; an effect the other way counts as inactive or inconclusive.
# Screens by letter – A = gsp agonist; B = KinaseGlo FLuc; C = RXFP1 antag; D = RXFP1 ag; E = miR-21 reporter; F = gsp antag
compound: CC(=O)Nc1ccc(C=CC=Cc2cccc([N+](=O)[O-])c2)cc1
  A: -2.4%; B: /; C: -60.6*; D: /; E: /; F: ?
compound: Cc1cc(C)c(NC(=O)c2cc(S(=O)(=O)N3CCCC3)cn2C)c(C)c1
  A: /; B: /; C: -12.4; D: 0.4%; E: 2.8%; F: /
compound: COC(=O)c1c(NC(NC(=O)CC(C)C)C(Cl)(Cl)Cl)sc2c1CCC2 (stereo not drawn)
  A: -11.8%; B: 3.2%; C: /; D: 0.0%; E: 4.4%; F: ?
compound: COC(=O)c1c(NC(NC(C)=O)C(Cl)(Cl)Cl)sc2c1CCCC2 (stereo not drawn)
  A: -9.3%[15.4 µM]; B: 1.6%; C: -74.5*; D: -3.7%; E: 13.1%; F: -22.9%
compound: CCOC(=O)c1c(NC(NC(C)=O)C(Cl)(Cl)Cl)sc2c1CCCC2 (stereo not drawn)
  A: -19.8%; B: 1.5%; C: -67.9*; D: -0.8%; E: 11.4%; F: 0.1%
compound: CCC(=O)NC(Nc1sc2c(c1C(=O)OC)CCC2)C(Cl)(Cl)Cl (stereo not drawn)
  A: 1.4%; B: -1.6%; C: /; D: -0.8%; E: 7.0%; F: -36.1%
compound: Cc1nnc(N2CCCC(C(=O)NCCc3ccc(Cl)cc3)C2)c2nn(-c3ccccc3)c(C)c12 (stereo not drawn)
  A: /; B: /; C: -8.9; D: -0.7%; E: 0.8%; F: /
compound: O=C(N/N=C/c1ccc(O)c(O)c1O)/C(=C/c1ccc([N+](=O)[O-])cc1)NC(=O)c1ccccc1
  A: 7.6%[15.4 µM]; B: -2.7%; C: -71.3*; D: -0.2%; E: -0.3%; F: -28.3%
compound: COc1ccc(Cl)cc1C(=O)NCC(c1ccc(N(C)C)cc1)N1CCCC1 (stereo not drawn)
  A: /; B: /; C: -8.2; D: -0.3%; E: -7.2%; F: /
compound: CC(C)C(=O)NC(=O)COC(=O)/C=C/c1cccs1
  A: -4.2%[15.4 µM]; B: 1.8%; C: -15.2; D: -2.1%; E: -0.1%; F: 4.1%
compound: CN(C(=O)COC(=O)/C=C/c1cccs1)C1CCCCC1
  A: 3.5%; B: /; C: -88.2*; D: /; E: /; F: 10.8%
compound: CC(C)(C)c1ccc(OCc2nnc(-c3ccccc3)o2)cc1
  A: /; B: /; C: -30.6; D: -0.1%; E: -13.3%; F: /
compound: Cc1nonc1C(=O)N/N=C/c1cccc(O)c1
  A: -18.0%; B: 8.91µM*; C: 12.2; D: 0.8%; E: -11.7%; F: 11.3%
compound: O=C(N/N=C/c1cccc(O)c1)N/N=C/c1cccc(O)c1
  A: -12.7%[15.4 µM]; B: /; C: -3.2; D: 2.0%; E: -16.7%; F: -17.9%
compound: Cc1cc(NC(=O)CN(C)S(=O)(=O)c2ccc3c(c2)CCC(=O)N3)ccc1Br
  A: /; B: /; C: -12.6; D: -1.7%; E: ?; F: /
compound: N#Cc1ccc2c(c1)C[C@]1(CCCCN3C(=O)c4ccccc4C3=O)OC3=C(C(=O)OC4(CCCCC4)C3)C2O1
  A: /; B: /; C: /; D: 1.9%[11.5 µM]; E: -3.6%[7.66 µM]; F: /
compound: CCOc1ccc(N=Cc2c(C)[nH]n(-c3nc4ccccc4[nH]3)c2=O)cc1
  A: 7.2%; B: 8.91µM*; C: 5.9; D: 1.7%; E: -4.1%; F: -6.0%
compound: CCCC(=O)NCC(c1ccc2c(c1)OCO2)N1CCN(c2ccccc2)CC1 (stereo not drawn)
  A: /; B: /; C: -8.0; D: 4.0%; E: -1.6%; F: /
compound: Cc1ccc(-c2cc(C(=O)NC3CCCCC3)no2)cc1
  A: 15.0%; B: /; C: -15.3; D: 1.2%; E: -11.3%; F: 1.6%
compound: Cc1ccc(-c2nc(C(=O)NC3CCCCCC3)no2)cc1
  A: -3.3%; B: /; C: -61.5*; D: /; E: /; F: 2.8%
compound: CC1=CC(C)(C)N2C(=O)C3(C(C#N)=C(N)Oc4cc(O)ccc43)c3c(C)c(C)cc1c32 (stereo not drawn)
  A: -3.8%; B: -3.8%; C: -73.3*; D: -0.4%; E: ?; F: -13.3%
compound: COc1cc(Cl)c(C)cc1NC(=O)c1cc(S(=O)(=O)N2CCCC2)ccc1F
  A: /; B: /; C: -5.1; D: -1.5%; E: 2.2%; F: /
compound: CCOC(=O)CSc1nc(=O)n2ccc(C)cc2n1
  A: ?; B: -1.1%; C: -71.9*; D: 15.8%; E: -2.3%; F: -5.2%
compound: CSC1=NSC2=NC(=O)/C(=C\c3cccs3)C(=N)N12
  A: 3.1%; B: -11.4%; C: -2.6; D: 1.7%; E: -33.5%; F: 35.5µM*
compound: CC(C)CSC1=NSC2=NC(=O)/C(=C\c3cccs3)C(=N)N12
  A: -14.6%[15.4 µM]; B: 0.3%; C: -4.6; D: -0.2%; E: -51.7%; F: -12.5%
compound: N=C1/C(=C/c2cccs2)C(=O)N=C2SN=C(SCc3ccccc3)N12
  A: 16.5%; B: 0.5%; C: -9.9; D: 2.4%; E: -39.2%; F: 31.6µM*
compound: CN(C)c1ccc(/C=N/NC(=O)c2ccccc2)cc1
  A: 0.4%; B: ?; C: -9.0; D: -1.1%; E: -26.3%; F: -14.1%
compound: C/C(=N/N=C/c1ccc(N(C)C)cc1)c1ccccc1
  A: 17.4%; B: 8.91µM*; C: 17.1; D: 0.3%; E: -58.0%; F: 4.2%
compound: CCCCN(C(=O)C1CCC(CNS(=O)(=O)c2cccc3nsnc23)CC1)c1ccccc1 (stereo not drawn)
  A: /; B: /; C: -7.1; D: -2.3%; E: 25.3%; F: /
compound: CCCCc1ccc(NC(=S)N2CCN(c3ccccn3)CC2)cc1
  A: -20.2%; B: /; C: -68.7*; D: 0.1%; E: 4.9%; F: -10.9%
compound: CCCCc1ccc(NC(=S)N2CCN(c3ncccn3)CC2)cc1
  A: -12.1%[15.4 µM]; B: 0.6%; C: -25.5; D: 0.6%; E: -3.8%; F: -5.3%
compound: COc1ccc2[nH]c(=O)c(CN(C(=O)c3cccc(Cl)c3)c3ccccc3C)cc2c1
  A: /; B: /; C: -3.6; D: 18.3%; E: -3.9%; F: /
compound: CC1CCCC(C)N1C(=O)Cn1nnc(-c2ccccc2)n1 (stereo not drawn)
  A: 15.8µM*; B: /; C: 5.8; D: -0.2%; E: -5.8%; F: 3.9%
compound: O=C(Nc1ccccc1)N1CCN(c2nc(-c3ccccc3)ns2)CC1
  A: 8.9%[15.4 µM]; B: /; C: -17.7; D: 1.4%; E: 8.7%; F: 35.5µM*
compound: O=C(O)[C@H](C1NCCS1)N1C(=O)c2ccccc2C1=O (stereo partly drawn)
  A: /; B: -1.3%[7.66 µM]; C: /; D: /; E: /; F: /
compound: CCC(=O)Nc1ccc(C(=O)CN2C(=O)NC3(CCCCCC3)C2=O)cc1
  A: 10.5%; B: /; C: 0.5; D: 2.4%; E: /; F: 6.2%
compound: CCCCCC(=O)Nc1ccc(C(=O)CN2C(=O)NC3(CCCCCC3)C2=O)cc1
  A: 16.3%[15.4 µM]; B: /; C: -89.8*; D: 0.2%; E: /; F: 7.5%
compound: Cn1c(=O)cc(SCC(=O)N2CCCC2)c2ccc(Cl)cc21
  A: 11.2µM*; B: -1.5%; C: 28.4; D: 7.3%; E: -10.1%; F: -18.8%
compound: Cn1c(=O)cc(SCC(=O)N2CCOCC2)c2ccc(Cl)cc21
  A: ?; B: 1.7%; C: 21.8; D: 4.1%; E: -9.2%; F: -19.4%
compound: CCCCCCCCCCCCCCNCCO
  A: /; B: /; C: -13.3; D: /; E: /; F: /
compound: COc1ccc(Nc2c3c(nc4ccc(NC(=O)c5cc(Cl)ccc5OC)cc24)CCCC3)cc1OC
  A: /; B: /; C: /; D: -0.8%; E: ?; F: /
compound: O=c1[nH]c2ccc(S(=O)(=O)N3CCC(Cc4ccccc4)CC3)cc2o1
  A: 8.4%; B: /; C: -5.9; D: 1.6%; E: -2.3%; F: 25.1µM*
compound: Cn1c(=O)c(=O)n(C)c2cc(S(=O)(=O)N3CCC(Cc4ccccc4)CC3)ccc21
  A: 4.5%; B: -1.1%; C: 0.3; D: 5.7%; E: -4.9%; F: -2.2%
compound: CCc1cccc(C)c1NC(=O)CN1CCCN(Cc2ccccc2Cl)S1(=O)=O
  A: /; B: /; C: -12.6; D: -0.5%; E: -2.2%; F: /
compound: O=c1cc(-c2ccccc2)[nH]n1-c1nc2ccccc2[nH]1
  A: -4.0%; B: -10.8%; C: -75.6*; D: -1.7%; E: -15.2%; F: -13.2%
compound: CCc1cc(=O)[nH]c(-n2[nH]c(-c3ccccc3)cc2=O)n1
  A: 2.1%[15.4 µM]; B: 1.7%; C: -14.2; D: 0.1%; E: -1.2%; F: -5.0%
compound: Cc1ccc(-c2nc3sc(CCNC(=O)c4ccc(C)c(C)c4)c(C)n3n2)cc1
  A: /; B: /; C: /; D: 1.1%; E: -35.4%; F: /

# gsp agonist: entries above that show a hit
compound	gsp agonist	RXFP1 antag	miR-21 reporter	gsp antag
CC1CCCC(C)N1C(=O)Cn1nnc(-c2ccccc2)n1 (stereo not drawn)	15.8µM*	5.8	-5.8%	3.9%
Cn1c(=O)cc(SCC(=O)N2CCCC2)c2ccc(Cl)cc21	11.2µM*	28.4	-10.1%	-18.8%

# High-throughput results: PubChem BioAssay, National Center for Advancing Translational Sciences (NCATS)
